The values below are quoted from earlier work in patent US20180155693A1, “Method of Differentiating Stem Cells” (BioTime, Inc., priority 2008, published 2018).

The conditions of this data set: cited from earlier work.

What is called half-life is the time in which the quantity being followed falls by half. In the case of insulin, the half-life is 5 min.
